Molecular target: Serine/threonine-protein kinase pim-1 (Homo sapiens, UniProt P11309)

Sequences of proteins named here, by UniProt entry; tags and fusion partners are left off.
UniProt P11309, whole entry: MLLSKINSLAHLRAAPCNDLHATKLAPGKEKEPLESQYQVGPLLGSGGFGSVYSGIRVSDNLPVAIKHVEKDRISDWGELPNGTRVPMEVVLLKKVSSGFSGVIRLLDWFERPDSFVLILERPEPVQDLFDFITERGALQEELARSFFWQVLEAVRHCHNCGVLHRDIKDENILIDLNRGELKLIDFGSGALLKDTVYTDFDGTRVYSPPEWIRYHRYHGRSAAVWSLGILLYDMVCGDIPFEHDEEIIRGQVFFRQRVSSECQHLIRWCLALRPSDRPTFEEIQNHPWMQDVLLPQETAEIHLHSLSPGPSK

- IC50: 120 nM
SMILES: N[C@H]1CC[C@H](Nc2cncc(-c3ccc4oc(C(=O)O)cc4c3)n2)CC1

From ChEMBL document CHEMBL1781944, “The discovery of novel benzofuran-2-carboxylic acids as potent Pim-1 inhibitors” (Bioorg Med Chem Lett, 2011)
